Laboratory results published in ChEMBL document CHEMBL2385017, “Selective Inhibitors of Fibroblast Activation Protein (FAP) with a (4-Quinolinoyl)-glycyl-2-cyanopyrrolidine Scaffold” (ACS Med Chem Lett, 2013).

Target: Dipeptidyl peptidase 2 (Homo sapiens, UniProt Q9UHL4)
Experiment: Inhibition of DPP2 in human seminal plasma using Lys-Ala-p-nitroanilide as substrate incubated for 15 mins prior to substrate addition

IC50: > 100 µM
Compound: N#C[C@@H]1CCCN1C(=O)CNC(=O)c1cccc2cnccc12
